Yeast mating assay 2: variants of the scFv Ab-95

Values reported by Engelhart et al. 2022, doi:10.1038/s41597-022-01779-4 (FLAb copy).

The target is the same throughout: PDVDLGDISGINAS, from the HR2 region of SARS-CoV-2 spike.

The variants keep the heavy chain, the linker and the frameworks of Ab-95 (scFv order VH, the linker GGGGSGGGGSGGGGS, VL).
VH: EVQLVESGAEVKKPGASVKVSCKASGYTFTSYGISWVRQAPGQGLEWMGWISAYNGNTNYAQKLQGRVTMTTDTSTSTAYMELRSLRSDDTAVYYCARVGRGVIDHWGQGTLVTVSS
VL: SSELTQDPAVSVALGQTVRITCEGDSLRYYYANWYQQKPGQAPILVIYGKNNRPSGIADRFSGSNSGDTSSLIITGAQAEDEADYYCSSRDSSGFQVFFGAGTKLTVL

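Phage display of a naive human antibody library on the peptide gave the parent. Variants in AAYL52 differ from the parent at up to three CDR positions; double and triple changes were sampled at random. Affinity was read by AlphaSeq, a pooled yeast mating assay with surface-displayed partners. Mating (16 h, 30 °C) was followed by selection of diploids and sequencing of their barcodes. Read counts were normalised to the haploid input and turned into Kd by a linear fit to BCL2-family pairs of known affinity, for each replicate. The assay was run in three technical replicates.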

Changes read parent residue, position, new residue, counted from the first residue of the VL shown.
Every variant below is changed at G49 of the VL (sequential numbering).
Affinities are written as log10 Kd with Kd in nM; a lower number is a better binder.
Averages over replicates are reported, and they cover detected replicates only.
Where no diploid with the target was found in that replicate, the entry reads "nd": below detection, most likely a poor binder, though not proof of it.
The list is sorted by this average, lowest first, undetected variants last.
As a blank, each scFv also met three strains without target: over library AAYL52, 28% of these pairings were detected, typically at 3.91 and seldom below 2.90. Also given: how often the same scFv was detected with the empty control strains.

* G49A/S55N/S93A -> 2.16, 2.98, 2.65 (mean 2.59; controls 2 of 9)
* G49D/D91N/Q96E -> 4.04, 2.95, 2.53 (mean 3.17; controls 6 of 9)
* G49S/S93M -> nd, 4.00, 2.40 (mean 3.20; controls 3 of 9)
* R28L/G49Y/S92H -> 3.91, 2.89, nd (mean 3.40; controls 0 of 9)
* G49D/K50Y/N51T -> 3.76, 3.51, 3.00 (mean 3.42; controls 1 of 9)
* G49R/K50W/S93T -> nd, nd, 3.44 (controls 0 of 9)
* Y29Q/G49Y -> 3.08, nd, 4.33 (mean 3.70; controls 1 of 9)
* G49E/K50R/D91P -> 3.94, 3.55, nd (mean 3.75; controls 4 of 9)
* G49E/S55D/D91Q -> 3.36, nd, 4.25 (mean 3.81; controls 0 of 9)
* G49M/S88E/Q96E -> 3.57, 4.20, nd (mean 3.89; controls 2 of 9)
* G24A/G49T/S55V -> 4.13, nd, 3.84 (mean 3.98; controls 3 of 9)
* S26Y/N33K/G49Y -> 4.14, 4.46, 3.49 (mean 4.03; controls 3 of 9)
* R28I/G49T/D91V -> 4.47, 3.58, 4.06 (mean 4.04; controls 2 of 9)
* G49F/D91V/Q96K -> 4.11, nd, nd (controls 3 of 9)
* Y31W/G49D/S55F -> 4.21, 3.63, 4.54 (mean 4.13; controls 3 of 9)
* G49M/S92W/F95P -> 4.14, nd, nd (controls 1 of 9)
* D25P/Y31M/G49F -> nd, 4.15, nd (controls 6 of 9)
* S26P/G49P/V97D -> nd, 4.16, nd (controls 0 of 9)
* L27P/G49W/S92L -> 4.80, nd, 3.51 (mean 4.16; controls 1 of 9)
* G49F/S93L -> 5.09, 3.62, 3.91 (mean 4.20; controls 2 of 9)
* G49M/R53H/F98C -> nd, nd, 4.25 (controls 5 of 9)
* E23N/G49Y/G94M -> nd, 4.35, nd (controls 0 of 9)
* N33V/G49K/K50M -> nd, 4.78, 4.06 (mean 4.42; controls 2 of 9)
* G49M/P54C/V97R -> nd, nd, 4.44 (controls 3 of 9)
* N33Q/G49R/P54N -> 5.09, 4.04, 4.28 (mean 4.47; controls 1 of 9)
* Y29N/Y31W/G49K -> 4.48, nd, nd (controls 3 of 9)
* A32R/G49W/Q96Y -> 4.02, 5.12, 4.54 (mean 4.56; controls 4 of 9)
* Y30V/G49Y/F95E -> nd, 4.59, nd (controls 1 of 9)
* G49Y/N51V/S89R -> 5.29, 3.90, nd (mean 4.59; controls 2 of 9)
* G24K/G49K/F95R -> 3.45, 5.56, 4.76 (mean 4.59; controls 3 of 9)
* G49V/N52M/S88G -> 3.39, 5.84, 4.63 (mean 4.62; controls 3 of 9)
* A32T/G49Y/P54C -> nd, 4.72, nd (controls 4 of 9)
* G49P/N51L/R53Y -> nd, 4.75, nd (controls 1 of 9)
* G49M/K50W/N51V -> 4.28, 5.35, nd (mean 4.82; controls 4 of 9)
* G49I/S92E/V97L -> 4.91, nd, nd (controls 1 of 9)
* G49Y/K50V/P54L -> 5.23, nd, nd (controls 4 of 9)
* G49T/G94W -> 5.50, nd, nd (controls 4 of 9)
* G49Y/D91L/Q96S -> nd, nd, nd (controls 5 of 9)
* E23N/G49Y/F98P -> nd, nd, nd (controls 3 of 9)
* G49S/D91V -> nd, nd, nd (controls 0 of 9)
* G49T/R53H/F98P -> nd, nd, nd (controls 0 of 9)
* G49T -> nd, nd, nd (controls 1 of 9)
* N33K/G49T/F95C -> nd, nd, nd (controls 1 of 9)
* N33E/G49I/Q96E -> nd, nd, nd (controls 2 of 9)
* G49H/R53V/S92C -> nd, nd, nd (controls 0 of 9)
* L27R/A32E/G49L -> nd, nd, nd (controls 1 of 9)
* Y30I/G49Q/S89F -> nd, nd, nd (controls 2 of 9)

Excerpt, the first 5 entries:

changes,"log10 Kd, replicates",mean log10 Kd (nM),signal with controls
G49A/S55N/S93A,"2.16, 2.98, 2.65",2.59,2 of 9
G49D/D91N/Q96E,"4.04, 2.95, 2.53",3.17,6 of 9
G49S/S93M,"nd, 4.00, 2.40",3.20,3 of 9
R28L/G49Y/S92H,"3.91, 2.89, nd",3.40,0 of 9
G49D/K50Y/N51T,"3.76, 3.51, 3.00",3.42,1 of 9